Data from ChEMBL document CHEMBL4371087, “Development of novel liver X receptor modulators based on a 1,2,4-triazole scaffold” (Bioorg Med Chem Lett, 2019).

Chains of the proteins cited; added tags and fusions are not shown.
UniProt Q13133, whole entry: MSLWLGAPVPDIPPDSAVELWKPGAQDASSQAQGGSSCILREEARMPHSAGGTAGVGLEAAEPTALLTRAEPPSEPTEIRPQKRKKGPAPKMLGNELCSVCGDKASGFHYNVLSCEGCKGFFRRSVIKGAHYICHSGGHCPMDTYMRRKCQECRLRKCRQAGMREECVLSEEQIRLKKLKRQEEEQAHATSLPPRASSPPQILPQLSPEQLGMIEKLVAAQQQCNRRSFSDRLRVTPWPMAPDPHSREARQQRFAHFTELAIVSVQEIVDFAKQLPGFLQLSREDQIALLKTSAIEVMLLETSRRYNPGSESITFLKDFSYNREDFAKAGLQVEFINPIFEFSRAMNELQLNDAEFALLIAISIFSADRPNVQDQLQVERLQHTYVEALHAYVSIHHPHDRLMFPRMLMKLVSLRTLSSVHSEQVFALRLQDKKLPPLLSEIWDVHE
UniProt P55055, whole entry: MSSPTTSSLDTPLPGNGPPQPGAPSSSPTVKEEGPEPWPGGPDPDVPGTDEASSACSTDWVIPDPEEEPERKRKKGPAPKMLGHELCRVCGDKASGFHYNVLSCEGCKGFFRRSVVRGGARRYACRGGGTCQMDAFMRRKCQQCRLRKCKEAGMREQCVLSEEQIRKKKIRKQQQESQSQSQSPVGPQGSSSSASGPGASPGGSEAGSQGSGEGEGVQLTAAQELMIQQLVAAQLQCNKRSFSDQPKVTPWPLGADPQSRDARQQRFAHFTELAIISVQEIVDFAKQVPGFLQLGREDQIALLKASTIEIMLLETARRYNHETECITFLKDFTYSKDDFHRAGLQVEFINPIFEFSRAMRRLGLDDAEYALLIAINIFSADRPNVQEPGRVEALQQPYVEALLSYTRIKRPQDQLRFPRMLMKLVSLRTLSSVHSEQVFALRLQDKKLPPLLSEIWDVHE

Tests used:
Format in all cases: cell-based
[1] = molecular target: Oxysterols receptor LXR-alpha (Homo sapiens, UniProt Q13133); assay: Agonist activity at full length human LXRalpha expressed in HEK293 cells harboring LXRE-Luc promoter at 10 uM by luciferase reporter gene assay relative to T0901317
[2] = molecular target: Oxysterols receptor LXR-beta (Homo sapiens, UniProt P55055); assay: Agonist activity at full length human LXRbeta expressed in HEK293 cells harboring LXRE-Luc promoter at 10 uM by luciferase reporter gene assay relative to T0901317
Homo sapiens = species: Homo sapiens; assay: Selectivity ratio of EC50 for full length human LXRalpha expressed in HEK293 cells to EC50 for full length human LXRbeta expressed in HEK293 cells

Row | Structure (SMILES) | Emax [1] [%] | Emax [2] [%] | Ratio EC50 (Homo sapiens)
1 | c1ccc(-c2n[nH]c(-c3ccccc3)n2)cc1 | 56 | 63 | 0.14
2 | Clc1ccccc1-c1n[nH]c(-c2ccccc2)n1 | 60 | 74 | 0.82
3 | CC(=O)n1nc(-c2ccccc2)nc1-c1ccccc1 | 56 | 63 | 1.71
4 | CC(=O)n1nc(-c2ccc(Br)cc2)nc1-c1ccccc1 | 58 | 78 | 0.49
